Assay results taken from patent US20240254119A1 (THIRD HARMONIC BIO, INC., priority 2022, published 2024).

The chains behind the UniProt entries cited, without tags or fusion partners. Residues count along the entry.
UniProt P10721, 26-976 limits assumed: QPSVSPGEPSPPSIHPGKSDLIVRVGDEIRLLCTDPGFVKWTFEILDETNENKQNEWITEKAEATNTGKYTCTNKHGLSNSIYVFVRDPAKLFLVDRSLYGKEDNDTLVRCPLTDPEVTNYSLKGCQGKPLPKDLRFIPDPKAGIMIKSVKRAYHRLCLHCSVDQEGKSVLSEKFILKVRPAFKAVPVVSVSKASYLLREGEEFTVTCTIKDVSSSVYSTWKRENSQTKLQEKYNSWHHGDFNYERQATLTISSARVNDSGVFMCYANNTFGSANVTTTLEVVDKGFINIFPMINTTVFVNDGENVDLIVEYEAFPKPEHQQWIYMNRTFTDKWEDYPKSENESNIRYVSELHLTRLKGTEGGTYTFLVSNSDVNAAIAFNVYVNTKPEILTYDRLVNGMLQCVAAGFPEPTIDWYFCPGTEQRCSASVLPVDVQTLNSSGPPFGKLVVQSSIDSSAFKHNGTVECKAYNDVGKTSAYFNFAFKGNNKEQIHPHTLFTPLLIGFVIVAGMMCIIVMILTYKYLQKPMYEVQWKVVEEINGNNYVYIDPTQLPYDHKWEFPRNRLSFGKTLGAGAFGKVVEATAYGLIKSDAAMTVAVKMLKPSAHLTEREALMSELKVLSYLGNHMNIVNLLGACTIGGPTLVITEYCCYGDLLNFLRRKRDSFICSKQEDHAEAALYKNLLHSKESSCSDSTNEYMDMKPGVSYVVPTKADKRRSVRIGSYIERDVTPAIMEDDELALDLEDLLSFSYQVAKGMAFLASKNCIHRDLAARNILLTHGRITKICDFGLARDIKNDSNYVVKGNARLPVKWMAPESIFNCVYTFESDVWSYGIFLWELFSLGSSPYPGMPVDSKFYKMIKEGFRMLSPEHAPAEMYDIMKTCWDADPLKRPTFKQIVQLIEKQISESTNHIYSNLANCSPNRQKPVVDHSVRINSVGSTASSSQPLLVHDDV

These compounds were tested against wtKIT (Homo sapiens, UniProt P10721) (assay: HTRF biochemical assay, wtKIT (phosphorylation of a peptide substrate)). Details: read-out: KIT Biochemical IC50 avg, Table 4.

| IC50 [nM] | SMILES |
| --- | --- |
| < 50 | Cc1ccc(-c2noc(C[C@@H](C)O)n2)cc1NC(=O)c1cnc2cc(OCCCN3CCCC3)ccn12 |
| < 50 | Cc1ccc(-c2noc(C[C@H]3CCCO3)n2)cc1NC(=O)c1cnc2cc(-c3cscn3)ccn12 |
| < 50 | CCC(O)Cc1nc(-c2ccc(C)c(NC(=O)c3cnc4cc(OCCCN5CCCC5)ccn34)c2)no1 (single isomer, unassigned) |
| 50 to 500 | Cc1ccc(-c2noc(C3CC(C)N3)n2)cc1NC(=O)c1cnc2cc(F)ccn12 (single isomer, unassigned) |
| < 50 | Cc1ccc(-c2noc(C3CC(O)C3)n2)cc1NC(=O)c1cnc2cc(-c3ccn(C)n3)ccn12 (single isomer, unassigned) |
| < 50 | Cc1ccc(-c2noc(CC(O)C(F)F)n2)cc1NC(=O)c1cnc2cc(COCC(C)(C)O)ccn12 (single isomer, unassigned) |
| < 50 | Cc1ccc(-c2noc(CC3CCCO3)n2)cc1NC(=O)c1cnc2cc(Cl)ccn12 (single isomer, unassigned) |
| 50 to 500 | Cc1ccc(-c2noc([C@H]3C[C@@H]3F)n2)cc1NC(=O)c1cnc2cc(COCC(O)C(F)(F)F)ccn12 (single isomer, unassigned) |
| 50 to 500 | Cc1ccc(-c2noc([C@H]3C[C@@H]3F)n2)cc1NC(=O)c1cnc2cc(OC(C)C(F)(F)F)ccn12 (single isomer, unassigned) |
